# Test results: patent US20240215587A1 (priority 2020, published 2024)
# Test system: rice seeds
# Settings: seed soaking 24 h in 1500 or 2000 times dilutions
structure (smiles),measurement,value
"CCCCCCCCCCCC[N+](C)(C)Cc1ccccc1.[Br-] [Dodecyl dimethyl benzyl ammonium bromide, dodecyl dimethyl benzyl ammonium bromide]",inhibitory effects on rice seed germination and seedling growth (in words),have inhibitory effects
